Laboratory results taken from PubChem BioAssay AID624167 (Sanford-Burnham Center for Chemical Genomics, 2012).
The list shows a part of the results, in another mix than the full data.

Amino acid sequences for entries named in this document (tags omitted).
UniProt Q6IN02, whole entry, looked up: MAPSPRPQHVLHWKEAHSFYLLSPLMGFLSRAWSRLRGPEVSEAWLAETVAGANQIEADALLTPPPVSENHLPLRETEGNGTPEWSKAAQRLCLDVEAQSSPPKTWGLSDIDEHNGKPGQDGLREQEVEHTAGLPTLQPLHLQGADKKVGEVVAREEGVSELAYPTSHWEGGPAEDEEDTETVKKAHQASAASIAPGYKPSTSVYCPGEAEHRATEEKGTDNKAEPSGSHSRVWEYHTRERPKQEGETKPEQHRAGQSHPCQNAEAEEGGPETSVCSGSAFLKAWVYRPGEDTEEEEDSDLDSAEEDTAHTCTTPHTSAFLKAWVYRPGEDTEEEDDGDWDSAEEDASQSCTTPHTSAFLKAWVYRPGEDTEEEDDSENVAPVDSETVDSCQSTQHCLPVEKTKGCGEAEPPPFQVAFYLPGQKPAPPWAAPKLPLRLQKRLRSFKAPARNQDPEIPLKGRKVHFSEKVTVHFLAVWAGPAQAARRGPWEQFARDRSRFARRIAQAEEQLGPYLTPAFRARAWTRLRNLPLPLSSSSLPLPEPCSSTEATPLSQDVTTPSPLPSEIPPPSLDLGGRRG

Target: PEG-3 (UniProt Q6IN02)
Assay: Peg3 promoter luciferase inhibitors, potency, dose response, cell-based, HeLa, CREF/GAPDH counter-screen panel (AID 624167)
Conditions: HeLa PEG-Prom luciferase reporter, overnight, CREF/GAPDH counter-screens; run 2, dose range 1, at 100 µM (top of the series)

## O=c1[nH]c2ccccc2n1C1CCN(C(c2cccc3ccccc23)c2nnnn2C2CCCC2)CC1 (configuration not stated)
  inhibition: 36.6%

## CCCCn1nnnc1C(c1cccs1)N1CCC(n2c(=O)[nH]c3ccccc32)CC1 (configuration not stated)
  inhibition: 93.9%
